# From PubChem BioAssay (NCI)
#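 1) Cells in 96-well plates. 2) Compound, 48 h, 5 concentrations. 3) Linear interpolation between surrounding doses. 4) Unreached endpoint = highest concentration. At the GI50, growth is halved. TGI denotes the concentration required for complete inhibition of growth.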
# Key:
# Test in all cases: NCI anticancer screen, dose series, 48 h
# [1] = system: 786-0 renal
# [2] = system: OVCAR-5 ovarian
# [3] = system: HOP-62 NSCLC
# [4] = system: SF-295 CNS
# [5] = system: SNB-19 CNS
# [6] = system: A498 renal
# [7] = system: SF-268 CNS
# [8] = system: HCT-116 colon
# [9] = system: M14 melanoma
# [10] = system: HS 578T breast
# [11] = system: IGROV1 ovarian
# [12] = system: T-47D breast
# [13] = system: HCC-2998 colon
# [14] = system: RXF 393 renal
# [15] = system: NCI-H522 lung
# [16] = system: MDA-N
# [17] = system: SR leukemia
# [18] = system: OVCAR-4 ovarian
# [19] = system: HOP-92 NSCLC
# [20] = system: U251 CNS
# [21] = system: UACC-257 melanoma
# [22] = system: SW-620 colon
# [23] = system: CAKI-1 renal
# [24] = system: UACC-62 melanoma
# [25] = system: SN12C renal
# [26] = system: HT29 colon
# [27] = system: LOX IMVI melanoma
# [28] = system: HCT-15 colon
# [29] = system: MDA-MB-435
# [30] = system: SK-MEL-2 melanoma
# [31] = system: NCI-H460 lung
# [32] = system: COLO 205 colon
# [33] = system: NCI-H322M lung
# [34] = system: ACHN renal
# [35] = system: MOLT-4 leukemia
# [36] = system: NCI-H23 lung
# [37] = system: NCI/ADR-RES ovarian
# [38] = system: UO-31 renal
# [39] = system: HL-60(TB) leukemia
# [40] = system: PC-3 prostate
# [41] = system: K-562 leukemia
# [42] = system: DU-145 prostate
# [43] = system: RPMI-8226 leukemia
# [44] = system: SK-MEL-28 melanoma
# [45] = system: CCRF-CEM leukemia
# [46] = system: MALME-3M melanoma
# [47] = system: OVCAR-3 ovarian
# [48] = system: KM12 colon
# [49] = system: NCI-H226 lung
# [50] = system: EKVX NSCLC
# [51] = system: MDA-MB-231 breast
# [52] = system: TK-10 renal
# [53] = system: OVCAR-8 ovarian
# [54] = system: SK-MEL-5 melanoma
# [55] = system: A549 NSCLC
# [56] = system: MCF7 breast
# [57] = system: SF-539 CNS
# [58] = system: BT-549 breast
smiles,measurement,setting,value
COc1ccc2c(CSCCBr)cc(=O)oc2c1,GI50,[1],19.5 µM
same,TGI,[1],39.9 µM
same,GI50,[2],50.6 µM
same,TGI,[2],> 100 µM
same,GI50,[3],25.4 µM
same,TGI,[3],97.2 µM
same,GI50,[4],28.1 µM
same,TGI,[4],> 100 µM
same,GI50,[5],56.2 µM
same,TGI,[5],> 100 µM
same,GI50,[6],25.8 µM
same,TGI,[6],93.6 µM
same,GI50,[7],13.8 µM
same,TGI,[7],32.2 µM
same,GI50,[8],15.7 µM
same,TGI,[8],41 µM
same,GI50,[9],54.9 µM
same,TGI,[9],> 100 µM
same,GI50,[10],27.8 µM
same,TGI,[10],86.9 µM
same,GI50,[11],22.6 µM
same,TGI,[11],75.1 µM
same,GI50,[12],41.6 µM
same,TGI,[12],> 100 µM
same,GI50,[13],35.3 µM
same,TGI,[13],> 100 µM
same,TGI,[14],0.0984 µM
same,GI50,[15],13.9 µM
same,TGI,[15],29.4 µM
same,GI50,[16],34.8 µM
same,TGI,[16],> 100 µM
same,GI50,[17],21.8 µM
same,TGI,[17],80.9 µM
same,GI50,[18],21.9 µM
same,TGI,[18],71.1 µM
same,GI50,[19],23.8 µM
same,TGI,[19],45.4 µM
same,GI50,[20],16.6 µM
same,TGI,[20],55.5 µM
same,GI50,[21],33.4 µM
same,TGI,[21],> 100 µM
same,GI50,[22],33.5 µM
same,TGI,[22],> 100 µM
same,GI50,[23],22.1 µM
same,TGI,[23],49.4 µM
same,GI50,[24],24.1 µM
same,TGI,[24],59 µM
same,GI50,[25],28.8 µM
same,TGI,[25],> 100 µM
same,GI50,[26],29.6 µM
same,TGI,[26],> 100 µM
same,GI50,[27],14.8 µM
same,TGI,[27],31.7 µM
same,GI50,[28],32.4 µM
same,TGI,[28],> 100 µM
same,GI50,[29],27 µM
same,TGI,[29],92.4 µM
same,GI50,[30],25.1 µM
same,TGI,[30],55.5 µM
same,GI50,[31],23.9 µM
same,TGI,[31],90.3 µM
same,GI50,[32],28.5 µM
same,TGI,[32],69 µM
same,GI50,[33],68.2 µM
same,TGI,[33],> 100 µM
same,GI50,[34],21.2 µM
same,TGI,[34],59 µM
same,GI50,[35],16.4 µM
same,TGI,[35],70.3 µM
same,GI50,[36],25.5 µM
same,TGI,[36],99.3 µM
same,GI50,[37],19.3 µM
same,TGI,[37],47.6 µM
same,GI50,[38],29.4 µM
same,TGI,[38],88.2 µM
same,GI50,[39],16 µM
same,TGI,[39],40.1 µM
same,GI50,[40],35.1 µM
same,TGI,[40],> 100 µM
same,GI50,[41],31.7 µM
same,TGI,[41],> 100 µM
same,GI50,[42],35.3 µM
same,TGI,[42],> 100 µM
same,GI50,[43],17.7 µM
same,TGI,[43],49.6 µM
same,GI50,[44],88.7 µM
same,TGI,[44],> 100 µM
same,GI50,[45],25.6 µM
same,TGI,[45],> 100 µM
same,GI50,[46],35.8 µM
same,TGI,[46],90 µM
same,GI50,[47],16.8 µM
same,TGI,[47],41.5 µM
same,GI50,[48],21.8 µM
same,TGI,[48],47.5 µM
same,GI50,[49],20.6 µM
same,TGI,[49],> 100 µM
same,GI50,[50],63.6 µM
same,TGI,[50],> 100 µM
same,GI50,[51],33.7 µM
same,TGI,[51],> 100 µM
same,GI50,[52],35.6 µM
same,TGI,[52],> 100 µM
same,GI50,[53],21.9 µM
same,TGI,[53],64.2 µM
same,GI50,[54],19.4 µM
same,TGI,[54],39.2 µM
same,GI50,[55],38.2 µM
same,TGI,[55],> 100 µM
same,GI50,[56],23 µM
same,TGI,[56],81.8 µM
same,GI50,[57],17.7 µM
same,TGI,[57],52.2 µM
same,GI50,[58],43.7 µM
same,TGI,[58],> 100 µM
